Assay results: publication PMC5013544 (Blood cells, molecules & diseases, 2015)

Biological target: T1, human cdb3-eGFP fusion protein containing human cdb3 residues 1–379 (human, UniProt P02730 1-379)
T1 sequence (looked up): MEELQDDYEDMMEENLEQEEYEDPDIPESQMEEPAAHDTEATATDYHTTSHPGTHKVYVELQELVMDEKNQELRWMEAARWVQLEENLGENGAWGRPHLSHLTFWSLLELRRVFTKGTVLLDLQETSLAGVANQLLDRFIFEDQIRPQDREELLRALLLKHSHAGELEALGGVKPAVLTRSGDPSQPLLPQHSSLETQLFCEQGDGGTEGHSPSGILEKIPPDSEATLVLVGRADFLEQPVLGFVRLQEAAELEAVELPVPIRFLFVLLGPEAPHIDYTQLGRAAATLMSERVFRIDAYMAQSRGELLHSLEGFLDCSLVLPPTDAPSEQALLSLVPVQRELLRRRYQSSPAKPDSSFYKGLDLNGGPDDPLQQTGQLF
Assay: FRET or BRET

B1: human erythrocyte hemoglobin (complex)
chain 1: not shown
chain 2: not shown
Work on B1 yielded a Kd of 180 nM.
